Yeast mating assay 2: variants of the scFv Ab-91

Target peptide (SARS-CoV-2 spike, HR2 region): PDVDLGDISGINAS

Ab-91 is the parent antibody, in scFv form: VL, then the linker GGGGSGGGGSGGGGS, then VH. The light chain is unchanged in all variants.
VL: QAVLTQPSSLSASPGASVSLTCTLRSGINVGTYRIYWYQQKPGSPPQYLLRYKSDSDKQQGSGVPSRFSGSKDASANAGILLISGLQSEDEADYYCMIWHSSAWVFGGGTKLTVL
VH: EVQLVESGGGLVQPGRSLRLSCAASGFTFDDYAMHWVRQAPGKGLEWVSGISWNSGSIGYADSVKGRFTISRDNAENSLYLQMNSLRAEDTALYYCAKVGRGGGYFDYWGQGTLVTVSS

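The parent was found by panning a naive human phage display library on the peptide. The library (AAYL51) carries one to three amino acid substitutions per variant, with no insertions or deletions. Affinity was read by AlphaSeq, a pooled yeast mating assay with surface-displayed partners. Binding brings cells together so that they mate, and sequencing counts the barcode pairs among the diploids. The ratio of observed to expected reads was calibrated, replicate by replicate, on BCL2-family standards whose Kd was known from biolayer interferometry. There are three technical replicates.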

Substitutions are numbered in sequence along the VH above, starting at 1 (not Kabat).
Every variant below is changed at S55 of the VH (sequential numbering).
Values are apparent Kd, the geometric mean of the replicates that gave a signal; lower means stronger binding.
An entry "no signal" has no value in the source: the pair was not observed among the diploids in any replicate. This suggests poor binding but is not conclusive.
Background: pairings of library AAYL51 with three empty control strains gave a value in 21% of cases (median 34 µM, 5th percentile 1.8 µM). Values in that range, when seen in few replicates, are hard to tell from nonspecific mating.

* S55E+D62I+G104C -> 120 µM (2 of 3 replicates)
* S55H+V99I+Y108W -> 140 nM (3 of 3 replicates)
* G50S+S52W+S55P -> no signal (0 of 3 replicates)
* G50P+S55C+S63Y -> 350 µM (1 of 3 replicates)
* F27I+S55C+A61G -> no signal (0 of 3 replicates)
* D31V+S55T+D62V -> 2.6 µM (1 of 3 replicates)
* S55F+Y105S -> 26 µM (2 of 3 replicates)
* T28W+G50L+S55Y -> 1.9 µM (1 of 3 replicates)
* A33R+H35E+S55E -> no signal (0 of 3 replicates)
* A33N+S55W+R101F -> 730 µM (3 of 3 replicates)
* S55N+S63T -> no signal (0 of 3 replicates)
* G50T+S55V+D107F -> 520 µM (2 of 3 replicates)
* T28V+S55D+V99Q -> no signal (0 of 3 replicates)
* G26Y+S55I+Y108F -> 450 µM (3 of 3 replicates)
* S55C+V99Y+G104L -> no signal (0 of 3 replicates)
* F29E+S55C+G102I -> no signal (0 of 3 replicates)
* S55P+G104A -> 130 µM (3 of 3 replicates)
* F29T+S55P+A61Q -> 29 µM (1 of 3 replicates)
* H35D+S55A+A61H -> no signal (0 of 3 replicates)
* F29K+S55I -> 50 µM (3 of 3 replicates)
* Y32P+M34D+S55M -> 64 µM (3 of 3 replicates)
* G50I+S55N+G56K -> 15 µM (1 of 3 replicates)
* F29E+M34F+S55K -> 1.8 µM (1 of 3 replicates)
* M34W+S55K+G103I -> 25 µM (2 of 3 replicates)
* I51Y+S55N+D62V -> 150 µM (1 of 3 replicates)
* S55N+V64W -> no signal (0 of 3 replicates)
* I51Q+S55C+Y108A -> 160 µM (1 of 3 replicates)
* S55Y+G100C+D107Y -> 10 µM (1 of 3 replicates)
* S55R+A61G+D62S -> 6.5 µM (1 of 3 replicates)
* T28C+S55P+S63K -> 24 µM (1 of 3 replicates)
* H35D+S55G -> 24 nM (3 of 3 replicates)
* W53Q+S55V+G103V -> 17 µM (3 of 3 replicates)
* D31Y+S55Y+S57G -> no signal (0 of 3 replicates)
* S55N+S63C+Y108H -> no signal (0 of 3 replicates)
* S55A+S57K+F106D -> 26 µM (3 of 3 replicates)
* D30F+S55K+I58E -> no signal (0 of 3 replicates)
* S55Y+I58V+K65Q -> 1.4 µM (3 of 3 replicates)
* H35I+S55W+G103H -> no signal (0 of 3 replicates)
* F27G+D30S+S55I -> 16 µM (2 of 3 replicates)
* S55W+I58Y+F106D -> 38 µM (3 of 3 replicates)

Top 4 of the variants detected in all replicates, tightest first:

{"changes": "H35D+S55G", "Kd (apparent)": "24 nM", "replicates with signal": "3 of 3"}
{"changes": "S55H+V99I+Y108W", "Kd (apparent)": "140 nM", "replicates with signal": "3 of 3"}
{"changes": "S55Y+I58V+K65Q", "Kd (apparent)": "1.4 µM", "replicates with signal": "3 of 3"}
{"changes": "W53Q+S55V+G103V", "Kd (apparent)": "17 µM", "replicates with signal": "3 of 3"}

Reference: Engelhart et al. 2022, doi:10.1038/s41597-022-01779-4. File: FLAb, binding data.